Assay results reported in US20220265614A1, “TREATMENT COMPRISING FXR AGONISTS” (Novartis AG, priority 2019, published 2022).

Experiments:
NASH patients = assay: Parts A and B of study CLJN452A2202 in NASH patients, 12 weeks; details: 60 and 90 μg, Week 12
[1] = tested on: patients with biopsy-proven NASH and fibrosis stages 2-3; assay: FLIGHT-FXR (NCT02855164) Part C interim analysis at week 12; type: in vivo, human; details: for patients achieving relative HFF reduction by ≥30% (without imputation for missing values): week 12
Excerpt: FLIGHT-FXR (NCT02855164) is a phase 2 randomized, double blind, placebo-controlled, 3-part, adaptive-design study to assess the safety, tolerability, and efficacy of several doses of tropifexor (LJN452) in patients with non-alcoholic steatohepatitis (NASH).
METHODS: In Part C, the effects of higher doses of tropifexor on biomarkers and histology will be evaluated over 48 weeks in patients with biopsy-proven NASH and fibrosis stages 2-3. In all, 152 patients (64% females) were randomized to receive placebo (N=51), tropifexor 140 μg (N=50) or tropifexor 200 μg (N=51) once daily. Prespecified endpoints assessed at week 12 included overall safety and changes in alanine aminotransferase (ALT), hepatic fat fraction (HFF), gamma glutamyl transferase (GGT), and body weight.

SMILES: O=C(O)c1cc(F)c2nc(N3C4CCC3CC(OCc3c(-c5ccccc5OC(F)(F)F)noc3C3CC3)C4)sc2c1 [Tropifexor, 2-[(1R,3r,5S)-3-({5-cyclopropyl-3-[2-(trifluoromethoxy)phenyl]-1,2-oxazol-4-yl}methoxy)-8-azabicyclo[3.2.1]octan-8-yl]-4-fluoro-1,3-benzothiazole-6-carboxylic acid]
- safety (NASH patients): favorable safety
- patients achieving relative HFF reduction by ≥30% (without imputation for missing values) ([1]; 140 μg group): 32%
- LS mean relative change (SE) in HFF (MRI-PDFF) from baseline to Week 12 ([1]; 140 μg once daily, N = 50): −16.99 (4.64) %
- patients achieving relative HFF reduction by ≥30% (without imputation for missing values) ([1]; 200 μg group): 64%
- LS mean relative change (SE) in HFF (MRI-PDFF) from baseline to Week 12 ([1]; 200 μg once daily, N = 51): −31.37 (4.30) %
